Measurements from ChEMBL document CHEMBL1151742, “Design, synthesis, and characterization of high-affinity, systemically-active galanin analogues with potent anticonvulsant activities” (J Med Chem, 2008).

Target: T1, Galanin receptor type 2 (Homo sapiens, UniProt O43603)
T1 sequence (O43603 whole entry): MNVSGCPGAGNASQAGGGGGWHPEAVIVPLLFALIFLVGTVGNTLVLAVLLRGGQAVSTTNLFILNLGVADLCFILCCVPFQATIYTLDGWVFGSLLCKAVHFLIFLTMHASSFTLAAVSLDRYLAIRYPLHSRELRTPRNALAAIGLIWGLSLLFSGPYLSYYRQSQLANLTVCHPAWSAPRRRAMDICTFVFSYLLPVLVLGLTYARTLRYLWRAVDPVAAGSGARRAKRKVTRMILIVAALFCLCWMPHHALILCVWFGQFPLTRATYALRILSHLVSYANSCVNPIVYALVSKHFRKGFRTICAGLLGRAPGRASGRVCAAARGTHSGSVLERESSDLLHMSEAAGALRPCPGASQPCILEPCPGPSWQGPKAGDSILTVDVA
Assay: Displacement of europium-labeled galanin from human GalR2 expressed in CHO-K1 cells
Assay type: cell-based

## CCCCCCCCCCCCCCCC(=O)NCCCC[C@H](NC(=O)[C@@H](CCCCN)NC(=O)[C@@H](CCCCN)NC(=O)[C@@H]1CCCN1C(=O)CNC(=O)[C@H](CC(C)C)NC(=O)[C@H](CC(C)C)NC(=O)[C@H](Cc1ccc(O)cc1)NC(=O)CNC(=O)[C@H](C)NC(=O)[C@H](CO)NC(=O)[C@H](CC(N)=O)NC(=O)[C@H](CC(C)C)NC(=O)[C@@H](NC(=O)[C@H](Cc1c[nH]c2ccccc12)NC(=O)CNC)[C@@H](C)O)C(=O)N[C@H](CCCCN)C(N)=O
  Ki: 15 nM
